Data as given in patent publication US20230372307A1, “COMBINATION THERAPY USING BAX ACTIVATOR AGENT” (Albert Einstein College of Medicine, priority 2020, published 2023).
Where two headings read alike, the source gives them in different places.

The chains behind the UniProt entries cited, without tags or fusion partners.
UniProt Q07812, whole entry: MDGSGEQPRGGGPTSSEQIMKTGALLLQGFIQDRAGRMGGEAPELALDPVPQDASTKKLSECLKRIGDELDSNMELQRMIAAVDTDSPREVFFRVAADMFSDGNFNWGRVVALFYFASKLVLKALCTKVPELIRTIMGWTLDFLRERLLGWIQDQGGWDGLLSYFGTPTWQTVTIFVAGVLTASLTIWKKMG

Columns and labels:
[1] = biological target: T1, BAX:BCL-XL complexes (Homo sapiens, UniProt Q07812); assay: BAX co-immunoprecipitation and immunoblotting; assay type: cell-based; conditions: 4 hrs treatment
T1 construct: endogenous in cells; host or cells: BxPC-3, SW480, Calu-6

[2] = biological target: cellular BAX (Homo sapiens, UniProt Q07812); conditions: BxPC-3 cells, 40 μM, 15 min
[3] = biological target: T2, BAX (Homo sapiens, UniProt Q07812); conditions: for concentration achieving cytosolic BAX translocation to the mitochondria: 4 hr
[4] = oral 200 mg/Kg daily dose, mice
[5] = biological target: T2, BAX; assay: BIM SAHB-BAX competition fluorescence polarization assay (FPA); assay type: binding; parameters: serial dilutions of full-length BAX; made in house; host or cells: Escherichia coli
Description: PRODUCTION OF RECOMBINANT BAX PROTEIN. […] BAX wild type was purified by size-exclusion chromatography in a buffer containing 20 mM HEPES pH 7.2, 150 mM KC1, 1 mM DTT. Superdex 75 10/300 GL and 200 10/300 GL (GE Healthcare) columns were used.
FLUORESCENCE POLARIZATION BINDING As SAYS. […] Firstly, direct binding isotherms were generated by incubating FITC-BIM SAHBA2 (50 nM) with serial dilutions of full-length BAX and fluorescence polarization was measured at 20 min on a F200 PRO microplate reader (TECAN). Subsequently, in competition assays, a serial dilution of small-molecule or acetylated BIM SAHBA2 (Ac-BIM SAHB) was combined with FITC-BIM SAHBA2 (50 nM), followed by the addition of recombinant protein at EC75 concentration, as determined by the direct binding assay (BAX: 500 nM). EC50 and IC50 values were calculated by nonlinear regression analysis of competitive binding curves using Graphpad Prism software.

SMILES | BAX:BCL-XL complexes by BAX co-immunoprecipitation [1] | melting temperature of cellular BAX (CETSA) [2] | concentration achieving cytosolic BAX translocation to the mitochondria ([3]; BxPC-3 cells (printed BxPC-2)) [µM] | concentration promoting cytosolic BAX translocation to the mitochondria ([3]; BxPC-3 cells, 18 hrs) [µM] | concentration achieving cytosolic BAX translocation to the mitochondria ([3]; SW480 cells) [µM] | tolerability / survival [4] | IC50 [5] [nM]
Cc1nc(N/N=C2\C(=O)N(c3nc(-c4ccccc4)cs3)N=C2c2ccccc2)sc1C [BTSA1.2, 4-(2-(4,5-dimethylthiazol-2-yl)hydrazono)-5-phenyl-2-(4-phenyl-thiazol-2-yl)-2,4-dihydro-3H-pyrazol-3-one] | only BAX:BCL-XL complexes but not BAX:MCL-1 complexes increased upon BTSA1.2 treatment | significant increase in the melting temperature of cellular BAX | 10 | 2.5 to 5 | 10 | mice survived 5 daily doses without obvious toxic effects | –
O=C1/C(=N\Nc2nccs2)C(c2ccccc2)=NN1c1nc(-c2ccccc2)cs1 [BTSA1] | – | – | – | – | – | – | 159
